# B1: RPA (complex)
# chain 1: MSSVQLSRGDFHSIFTNKQRYDNPTGGVYQVYNTRKSDGANSNRKNLIMISDGIYHMKALLRNQAASKFQSMELQRGDIIRVIIAEPAIVRERKKYVLLVDDFELVQSRADMVNQTSTFLDNYFSEHPNETLKDEDITDSGNVANQTNASNAGVPDMLHSNSNLNANERKFANENPNSQKTRPIFAIEQLSPYQNVWTIKARVSYKGEIKTWHNQRGDGKLFNVNFLDTSGEIRATAFNDFATKFNEILQEGKVYYVSKAKLQPAKPQFTNLTHPYELNLDRDTVIEECFDESNVPKTHFNFIKLDAIQNQEVNSNVDVLGIIQTINPHFELTSRAGKKFDRRDITIVDDSGFSISVGLWNQQALDFNLPEGSVAAIKGVRVTDFGGKSLSMGFSSTLIPNPEIPEAYALKGWYDSKGRNANFITLKQEPGMGGQSAASLTKFIAQRITIARAQAENLGRSEKGDFFSVKAAISFLKVDNFAYPACSNENCNKKVLEQPDGTWRCEKCDTNNARPNWRYILTISIIDETNQLWLTLFDDQAKQLLGVDANTLMSLKEEDPNEFTKITQSIQMNEYDFRIRAREDTYNDQSRIRYTVANLHSLNYRAEADYLADELSKALLA
# chain 2: MATYQPYNEYSSVTGGGFENSESRPGSGESETNTRVNTLTPVTIKQILESKQDIQDGPFVSHNQELHHVCFVGVVRNITDHTANIFLTIEDGTGQIEVRKWSEDANDLAAGNDDSSGKGYGSQVAQQFEIGGYVKVFGALKEFGGKKNIQYAVIKPIDSFNEVLTHHLEVIKCHSIASGMMKQPLESASNNNGQSLFVKDDNDTSSGSSPLQRILEFCKKQCEGKDANSFAVPIPLISQSLNLDETTVRNCCTTLTDQGFIYPTFDDNNFFAL
# chain 3: MASETPRVDPTEISNVNAPVFRIIAQIKSQPTESQLILQSPTISSKNGSEVEMITLNNIRVSMNKTFEIDSWYEFVCRNNDDGELGFLILDAVLCKFKENEDLSLNGVVALQRLCKKYPEIY
# Biological target: Histones H3–H4 (H3 C110A-H4 E63C), Alexa488-labeled (Xenopus laevis, maleimide AlexaFluor-488 on E63C)
# Test: fluorescence polarisation; 10 nM Alexa488-labeled H3–H4 with increasing CAF-1, Polϵ, Polδ or RPA; 25 mM TRIS pH 7.5, 300 mM NaCl, 5% glycerol, 1 mM EDTA, 0.01% IGEPAL, 0.01% CHAPS, 1 mM DTT; one site binding curve
# Settings: both partners purified
binder,measurement,value
B1,Kd,≥ 300 nM

# Source: PMC10164577, “CAF-1 deposits newly synthesized histones during DNA replication using distinct mechanisms on the leading and lagging strands” (Nucleic Acids Research, 2022)
